Each molecule was assayed on RAW264.7 (assay: Antiresorptive activity in mouse RAW264.7 cells assessed as inhibition of tartrate-resistant acid phosphatase activity).

**Q.** Which IC50 does the source give for `COc1ccc(C/C(=N/P(=O)(Oc2ccccc2)Oc2ccccc2)N(C(C)C)C(C)C)cc1` here?
**A.** 21.2 µM

**Q.** With `CC(C)N(/C(CC1CCCCC1)=N\P(=O)(Oc1ccccc1)Oc1ccccc1)C(C)C` as the molecule, how does the IC50 read?
**A.** 2.4 µM

**Q.** With `O=P(/N=C(/Cc1ccccc1)N1CCOCC1)(Oc1ccccc1)Oc1ccccc1` as the molecule, how does the IC50 read?
**A.** 10.6 µM

**Q.** For `CCCCC/C(=N/P(=O)(Oc1ccccc1)Oc1ccccc1)N(C(C)C)C(C)C`, which IC50 is on record?
**A.** 7.3 µM

**Q.** With `O=P(/N=C(/Cc1ccccc1)N1CCCCC1)(Oc1ccccc1)Oc1ccccc1` as the molecule, how does the IC50 read?
**A.** 4.2 µM

**Q.** With `CC(C)N(/C(Cc1ccc([N+](=O)[O-])cc1)=N\P(=O)(Oc1ccccc1)Oc1ccccc1)C(C)C` as the molecule, how does the IC50 read?
**A.** 2.6 µM

**Q.** `CCCCN/C(Cc1ccccc1)=N\P(=O)(Oc1ccccc1)Oc1ccccc1` was tested. Which IC50 did it give?
**A.** 4.8 µM

**Q.** With `CCCN/C(Cc1ccccc1)=N\P(=O)(Oc1ccccc1)Oc1ccccc1` as the molecule, how does the IC50 read?
**A.** 6.5 µM

**Q.** Which IC50 does the source give for `CC(C)N(/C(Cc1ccccc1)=N\P(=O)(Oc1ccccc1)Oc1ccccc1)C(C)C` here?
**A.** 2 µM
